Data as given in patent US6800464B2, “Arthrobacter D-carbamoylase and methods of preparing enantiomerically enriched D-amino acids” (Degussa AG, priority 2001, dated 2004).

Sequences of proteins named here, by UniProt entry; tags and fusion partners are left off.
UniProt A0A1H1C375, entry or part of it: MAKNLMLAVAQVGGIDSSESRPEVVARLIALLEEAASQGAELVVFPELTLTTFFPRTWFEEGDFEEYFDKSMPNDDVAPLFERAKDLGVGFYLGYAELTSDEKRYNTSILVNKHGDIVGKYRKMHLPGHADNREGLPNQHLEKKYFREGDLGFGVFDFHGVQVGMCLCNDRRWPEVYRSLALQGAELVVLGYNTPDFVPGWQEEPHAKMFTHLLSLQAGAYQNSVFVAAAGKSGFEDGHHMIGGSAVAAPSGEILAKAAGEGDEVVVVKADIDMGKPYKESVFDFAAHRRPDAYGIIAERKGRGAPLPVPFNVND

Key:
[1] = biological target: D-carbamoylase from Arthrobacter crystallopoietes DSM 20117 (Crystallibacter crystallopoietes, UniProt A0A1H1C375); assay: Substrate specificity of the purified D-carbamoylase (relative conversion of carbamoyl substrates); type: biochemical; settings: 30° C., 0.1 M potassium phosphate buffer pH 8.0, 20 mM
Method: The homogeneously purified D-carbamoylase with the His-tag and ttg start codon (pMW1 —FIG. 5) was used for characterization of the enzyme obtained in this way. The enzyme was present in 0.1 M KPB pH 8.0.
To determine the substrate spectrum, the enzyme was incubated at a reaction temperature of 30° C. with the particular substrate in the presence of 0.1 M potassium phosphate buffer pH 8.0. To ensure the same concentration of the D-isomer, if the substrate was present as an isomer mixture a concentration of 20 mM was established; if the substrate was present as a pure isomer a concentration of 10 mM was established.

D-carbamoylase = settings: induction time of approx. six hours, E. coli JM109, ttg start codon clone

Q: How did the “activity corresponding to 100% relative activity (reference substrate)” value [1] turn out when `CCc1ccccc1` (racemic) [D,L-Carbamoyl-phenylalanine] was run?
A: 2 U/mg

Q: What about the “specific activity (maximum)” value (D-carbamoylase) of the same compound?
A: 2 U/mg
